Measured values from patent US20240270720A1, “INDAZOLE YL BENZIMIDAZOLE DERIVATIVE OR PHARMACEUTICALLY ACCEPTABLE SALT THEREOF, AND USE THEREOF” (INDUSTRY-UNIVERSITY COOPERATION FOUNDATION HANYANG …, priority 2021, published 2024).

Amino acid sequences for entries named in this document (tags omitted). A change or cut given only in a name is not applied to a line headed by its entry. Residues count along the entry.
UniProt P11802: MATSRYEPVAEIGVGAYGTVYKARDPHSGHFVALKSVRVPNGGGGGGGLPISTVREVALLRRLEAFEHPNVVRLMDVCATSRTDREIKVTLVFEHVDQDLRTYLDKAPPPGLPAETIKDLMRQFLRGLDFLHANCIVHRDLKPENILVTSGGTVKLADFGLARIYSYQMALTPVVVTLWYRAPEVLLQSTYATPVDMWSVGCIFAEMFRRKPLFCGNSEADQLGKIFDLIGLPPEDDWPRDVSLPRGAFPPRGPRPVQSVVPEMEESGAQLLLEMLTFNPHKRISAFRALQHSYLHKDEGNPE
UniProt P17948, 27-1338: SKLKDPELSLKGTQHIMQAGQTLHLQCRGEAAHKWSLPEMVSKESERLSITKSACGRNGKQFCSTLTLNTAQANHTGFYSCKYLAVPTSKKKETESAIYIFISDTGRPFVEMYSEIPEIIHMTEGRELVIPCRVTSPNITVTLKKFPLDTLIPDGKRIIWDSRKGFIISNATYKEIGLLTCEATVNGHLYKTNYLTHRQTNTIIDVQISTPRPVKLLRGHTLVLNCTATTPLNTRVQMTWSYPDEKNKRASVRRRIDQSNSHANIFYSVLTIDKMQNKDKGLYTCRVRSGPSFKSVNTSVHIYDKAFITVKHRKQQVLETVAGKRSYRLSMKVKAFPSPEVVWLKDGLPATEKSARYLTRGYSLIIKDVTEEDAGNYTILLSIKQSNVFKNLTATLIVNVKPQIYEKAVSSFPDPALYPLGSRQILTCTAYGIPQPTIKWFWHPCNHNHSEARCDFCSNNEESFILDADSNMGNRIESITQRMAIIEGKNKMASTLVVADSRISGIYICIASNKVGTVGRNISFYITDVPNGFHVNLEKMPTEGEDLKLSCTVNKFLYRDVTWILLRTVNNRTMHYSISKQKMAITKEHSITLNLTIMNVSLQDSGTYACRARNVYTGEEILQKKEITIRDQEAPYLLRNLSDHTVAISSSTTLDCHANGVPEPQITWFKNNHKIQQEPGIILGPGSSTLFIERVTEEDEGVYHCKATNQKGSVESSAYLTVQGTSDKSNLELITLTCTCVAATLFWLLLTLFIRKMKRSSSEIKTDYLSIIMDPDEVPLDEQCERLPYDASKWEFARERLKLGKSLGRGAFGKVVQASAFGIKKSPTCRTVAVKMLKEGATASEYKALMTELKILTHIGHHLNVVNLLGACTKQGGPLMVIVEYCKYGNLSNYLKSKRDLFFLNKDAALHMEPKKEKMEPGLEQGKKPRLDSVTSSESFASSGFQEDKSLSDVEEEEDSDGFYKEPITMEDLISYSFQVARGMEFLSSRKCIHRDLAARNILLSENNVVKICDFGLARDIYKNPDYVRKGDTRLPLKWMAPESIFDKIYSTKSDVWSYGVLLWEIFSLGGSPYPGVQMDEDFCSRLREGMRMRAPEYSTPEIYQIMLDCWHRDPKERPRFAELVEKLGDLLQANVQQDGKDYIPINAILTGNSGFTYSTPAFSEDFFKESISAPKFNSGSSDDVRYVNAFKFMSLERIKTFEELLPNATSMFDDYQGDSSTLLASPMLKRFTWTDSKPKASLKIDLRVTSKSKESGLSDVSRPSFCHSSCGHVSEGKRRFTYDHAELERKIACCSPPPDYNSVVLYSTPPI

How the values were obtained:
CDK4/cyclin D1 = CDK4/cyclin D1 (Homo sapiens, UniProt P11802); experiment: biochemical
FLT1/VEGFR1 = FLT1/VEGFR1 (Homo sapiens, UniProt P17948); experiment: biochemical

## CCN1CCN(Cc2cc(C(=O)Nc3ccc4[nH]c(-c5ccc6cn[nH]c6c5)nc4c3)cc(C(F)(F)F)c2)CC1 [Compound 8r, N-(2-(1H-indazol-6-yl)-1H-benzo[di]imidazol-5-yl)-3-((4-ethylpiperazin-1-yl)methyl)-5-(trifluoromethyl)benzamide]
CDK4/cyclin D1
  inhibition at 1 µM: 8.26%
FLT1/VEGFR1
  inhibition at 1 µM: 6%
